Patent publication US5096884A, “Glidobactin PF-1 peptide antibiotics” (Bristol-Myers Squibb Company, priority 1990, dated 1992)

System: B16 Melanoma (ip)
Conditions: B16, 0.063 mg/kg/day, QD1→9, ≥125% significant
Method: In vivo antitumor activity of glidobactin PF-1 was determined in experimental mouse tumor systems. Female CDF1 and male BDF1 mice were intraperitoneally inoculated with 0.4 mL of diluted ascitic fluid containing 10^6 lymphocytic leukemia P388 cells and 0.5 mL of 10% melanotic melanoma B16 brei, respectively. Test compounds were intraperitoneally administered daily for 9 days starting from 1 day after the tumor implantation.

## CO[C@@]12[C@H](COC(N)=O)C3=C(C(=O)C(C)=C(N)C3=O)N1C[C@@H]1N[C@@H]12 [Mitomycin C]
  T/C % of MST: 100%
